Assay results: patent US10689415B2, “Conjugates of RGD peptides and (bacterio)chlorophyll photosensitizers” (YEDA RESEARCH AND DEVELOPMENT COMPANY LTD., priority 2006, dated 2020)

The chains behind the UniProt entries cited, without tags or fusion partners. Residues count along the entry.
UniProt O54890, 26-787: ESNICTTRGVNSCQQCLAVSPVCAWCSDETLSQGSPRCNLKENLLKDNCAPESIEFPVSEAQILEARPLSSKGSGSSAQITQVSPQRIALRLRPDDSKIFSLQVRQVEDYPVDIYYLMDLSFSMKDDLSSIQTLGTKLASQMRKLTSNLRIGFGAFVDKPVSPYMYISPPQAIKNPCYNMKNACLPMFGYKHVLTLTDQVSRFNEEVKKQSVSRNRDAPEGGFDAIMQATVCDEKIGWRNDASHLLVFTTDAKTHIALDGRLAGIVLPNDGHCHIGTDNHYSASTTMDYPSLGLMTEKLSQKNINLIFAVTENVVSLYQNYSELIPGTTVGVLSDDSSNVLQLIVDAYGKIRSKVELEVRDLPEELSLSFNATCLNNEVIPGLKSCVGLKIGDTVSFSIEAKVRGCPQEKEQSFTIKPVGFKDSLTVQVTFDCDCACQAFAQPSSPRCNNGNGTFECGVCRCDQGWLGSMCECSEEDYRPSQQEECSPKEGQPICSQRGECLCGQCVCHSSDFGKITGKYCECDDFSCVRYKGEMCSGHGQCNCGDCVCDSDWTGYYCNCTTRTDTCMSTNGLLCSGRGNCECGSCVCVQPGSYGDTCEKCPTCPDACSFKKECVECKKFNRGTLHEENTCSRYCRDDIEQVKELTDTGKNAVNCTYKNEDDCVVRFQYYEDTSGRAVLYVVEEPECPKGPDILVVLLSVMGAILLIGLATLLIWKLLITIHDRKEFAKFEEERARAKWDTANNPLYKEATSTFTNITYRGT
UniProt P43406, 887-1044 limits assumed: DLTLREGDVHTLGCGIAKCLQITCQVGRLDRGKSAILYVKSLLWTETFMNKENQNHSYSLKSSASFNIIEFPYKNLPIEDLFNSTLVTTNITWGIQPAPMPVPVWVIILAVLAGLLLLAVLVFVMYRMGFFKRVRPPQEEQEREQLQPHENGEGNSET
UniProt P43406, 31-885 limits assumed: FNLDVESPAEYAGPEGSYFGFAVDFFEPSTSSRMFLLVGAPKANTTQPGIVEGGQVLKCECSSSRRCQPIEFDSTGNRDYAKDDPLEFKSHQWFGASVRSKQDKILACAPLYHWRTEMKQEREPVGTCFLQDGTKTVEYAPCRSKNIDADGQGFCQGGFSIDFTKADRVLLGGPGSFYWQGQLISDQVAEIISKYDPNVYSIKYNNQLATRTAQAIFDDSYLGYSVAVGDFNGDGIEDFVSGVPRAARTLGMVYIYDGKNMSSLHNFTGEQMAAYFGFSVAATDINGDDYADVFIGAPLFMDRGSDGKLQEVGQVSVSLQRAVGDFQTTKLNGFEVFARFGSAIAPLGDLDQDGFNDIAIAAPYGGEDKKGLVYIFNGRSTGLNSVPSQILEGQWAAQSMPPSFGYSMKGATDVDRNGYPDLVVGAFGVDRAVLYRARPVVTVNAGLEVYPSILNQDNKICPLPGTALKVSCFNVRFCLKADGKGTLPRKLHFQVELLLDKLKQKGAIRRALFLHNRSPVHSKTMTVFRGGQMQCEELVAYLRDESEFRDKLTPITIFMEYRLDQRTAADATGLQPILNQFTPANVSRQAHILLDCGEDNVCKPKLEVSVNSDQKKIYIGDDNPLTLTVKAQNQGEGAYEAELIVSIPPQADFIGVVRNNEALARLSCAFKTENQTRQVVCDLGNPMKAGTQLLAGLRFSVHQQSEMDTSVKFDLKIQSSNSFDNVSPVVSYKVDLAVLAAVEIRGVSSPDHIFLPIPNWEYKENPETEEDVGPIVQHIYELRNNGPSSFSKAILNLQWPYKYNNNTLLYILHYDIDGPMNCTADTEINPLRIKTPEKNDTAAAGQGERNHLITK

Target: αvβ3 integrin receptor (Mus musculus, UniProt O54890+P43406)
Test: αvβ3 integrin receptor binding assay of Eu-RGD-4C on H5V endothelial cells (time-resolved fluorometry, Scatchard)

receptors per cell (H5V cells): 1-1.8 million receptors per cell
1/Kd=Ka, the tested compound's affinity (Scatchard analysis) (H5V cells, 4° C., 2 h): 37.2 to 41.3 nM
Bmax (the maximal number of binding sites) (H5V cells, 4° C., 2 h): 4.3 to 7.7 nM
ratio of total binding to non-specific binding (highest concentration): ~4
ratio of total binding to non-specific binding (low ligand concentrations): ~1
non-specific binding from total added ligand (mean±SD) (presence of 1 μM RGD-4C): 4.9%±2.4%
Substance: Eu-RGD-4C: RGD-4C labeled with Eu by direct conjugation of isothiocyanatophenyl-DTPA-Eu
